# Results: EP4834905A1, “CRYSTAL FORM OF ACID SALT OF SULFOXIMINE COMPOUND, PREPARATION METHOD THEREFOR, AND USE THEREOF” (dated 2026)
# Where a name gives a salt, the structure may show the parent alone.
# How the values were obtained:
# MFE-296 = assay: Cell proliferation inhibition, CellTiter-Glo luminescent cell viability assay, FGFR2 background cells; settings: read-out: IC50 value, inhibition of proliferation, MFE-296, 72-96 hours incubation
# Method: (§1) This experiment investigates the compound's ability to inhibit cell proliferation by assessing its effect on in vitro cell viability in seven tumor cell lines (KATO III, NCI-H716, SNU-16, AN3CA, MFE-296, SUM52PE, MFM223).
# (§2) The cell lines were cultured in an incubator at 37 °C and 5% CO2 under standard conditions, passaged periodically, and cells in the logarithmic growth phase were used for plating. The test compounds were prepared as 10 mM solutions using DMSO.
# (§3) Preparation of the compound storage plate (tube): A 4-fold serial dilution with DMSO was set up from the highest to the lowest concentration to generate a total of 9 concentrations, and the internal reference compound was likewise subjected to 4-fold serial dilution to generate another 9 concentrations. Next, the compound working solutions were prepared as follows: 98 µL of cell culture medium was added to each well of a flat-bottomed 96-well transparent plate, and 2 µL of compound was pipetted from the compound storage plate to the cell culture medium in the 96-well plate. 2 µL of DMSO was added to the solvent control well. After the compound or DMSO was added, it was mixed thoroughly by pipetting.
# (§4) Cell seeding and drug administration: 1) Cells were stained with trypan blue and live cells were counted, cell viability must be ≥90%; 2) The cell concentration was adjusted to an appropriate level; 3) 95 µL of cell suspension was added to each well of the compound assay plate (6,000-10,000 cells/well), and cell-free medium (containing 0.1% DMSO) was added to the Min control wells; 4) Compound administration in the compound assay plate: 5 µL of a 20× compound stock solution was added to the cell culture plate as shown in Table 1. 5 µL of a DMSO-cell culture medium mixture was added to the Max control well. The final DMSO concentration was 0.1%; 5) The culture plate was incubated in a 37 °C, 5% CO2 incubator for 72-96 hours.
# (§5) The assay was performed according to the instructions for the Promega CellTiter-Glo Luminescent Cell Viability Assay Kit (Promega-G7573): 1) CellTiter-Glo buffer was thawed and equilibrated to room temperature; 2) CellTiter-Glo substrate was equilibrated to room temperature; 3) CellTiter-Glo buffer was added to one bottle of CellTiter-Glo substrate to dissolve the substrate, thereby the CellTiter-Glo working solution was prepared; 4) Slow vortex was performed to ensure complete dissolution; 5) The cell culture plate was taken and placed for 10 minutes to be equilibrated to room temperature; 6) 50 µL of CellTiter-Glo working solution (equivalent to half the volume of the cell culture medium in each well) was added to each well; 7) The plate was shaken on a shaking incubator for 2 minutes to induce cell lysis; 8) The plate was placed at room temperature for 10 minutes to stabilize the luminescence signal; 9) The luminescence signal was measured using a SpectraMax Paradigm reader.
# (§6) The cell proliferation inhibition rate data is calculated using the following formula: Inhibition Rate (Inh%) = 100−(RLUDrug−RLUMin)/(RLUMax−RLUMin) × 100%. [formula]
# (§7) The inhibition rates corresponding to different compound concentrations was calculated in Excel, then GraphPad Prism software was used to plot inhibition rate curves and the relevant parameters were calculated, including the maximum and minimum inhibition rates, IC50 value. Table 36 Results of the inhibitory effects of test compounds on the proliferation of FGFR2 background cell lines
# SNU-16 = assay: as above; settings: read-out: IC50 value, inhibition of proliferation, SNU-16, 72-96 hours incubation
# Method: as §1, §2, §3, §4, §5, §6, §7
# KATO III = assay: as above; settings: read-out: IC50 value, inhibition of proliferation, 72-96 hours incubation
# Method: as §1, §2, §3, §4, §5, §6, §7
# AN3CA = assay: as above; settings: read-out: IC50 value, inhibition of proliferation, 72-96 hours incubation
# Method: as §1, §2, §3, §4, §5, §6, §7
# SUM52PE = assay: as above; settings: read-out: IC50 value, inhibition of proliferation, 72-96 hours incubation
# Method: as §1, §2, §3, §4, §5, §6, §7
# NCI-H716 = assay: as above; settings: read-out: IC50 value, inhibition of proliferation, NCI-H716, 72-96 hours incubation
# Method: as §1, §2, §3, §4, §5, §6, §7
# MFM223 = assay: as above; settings: read-out: IC50 value, inhibition of proliferation, MFM223, 72-96 hours incubation
# Method: as §1, §2, §3, §4, §5, §6, §7
# [1] = Solubility in dissolution media at 37 °C (HPLC of supernatant, pH of supernatant, XRPD of residual solid) after 2 h, 8 h and 24 h; settings: for Solubility: target concentration 2 mg/mL (calculated as free-base form); for Residual solid XRPD: equilibrated for 24 h
# Method: 10 mg of the free-base crystal form A of the compound of formula I-1 or 10.8 mg (equivalent to 10 mg of the free-base anhydrous form) of the hydrochloride crystal form I of the compound of formula I-1 was weighed and placed in an 8 mL glass vial. 5 mL of dissolution medium was added. The resulting suspension/clear solution was stirred at 37 °C and 400 rpm for 2 h, 8 h, and 24 h, then the resulting suspension/clear solution was centrifuged at 37 °C and 14,000 rpm for 5 min. The solubility of the supernatant was determined by HPLC, and the pH of the supernatant was measured by a pH meter, and the residual solid was detected by XRPD. Table 34 Solubility testing of the free-base crystal form A of compound of formula I-1
# [2] = Solid stability of the hydrochloride crystal form I (XRPD, HPLC, stoichiometric ratio, visual colour) after one week of storage; settings: for Solid (XRPD) / Purity, Solid (HPLC) / Color: 1 week, Solid; for Purity, Solid (HPLC): initial purity 99.6%; for Color: visual observation
# Method: An open container containing the hydrochloride crystal form I of the compound of formula I-1 was placed at 25 °C/60% RH for one week. A sealed container containing the hydrochloride crystal form I of the compound of formula I-1 was placed at 60 °C for one week. Stability samples under these conditions were subjected to XRPD, HPLC, and stoichiometric ratio testing, and visual observation was performed for color changes of the samples. Table 33 Solid Stability of Hydrochloride Crystal Form I of the Compound of Formula I-1
smiles,measurement,setting,value
C=C(C)C(=O)Nc1ccc(-c2c(-c3ccc(N=S4(=O)CCCC4)cc3)c3c(N)ncnc3n2C)c(F)c1,IC50,MFE-296,14.9 nM
same,IC50,SNU-16,3 nM
same,IC50,KATO III,0.8 nM
same,IC50,AN3CA,9.9 nM
same,IC50,SUM52PE,6.2 nM
same,IC50,NCI-H716,2.4 nM
same,IC50,MFM223,1 nM
C=C(C)C(=O)Nc1ccc(-c2c(-c3ccc(N=S4(=O)CCCC4)cc3)c3c(N)ncnc3n2C)c(F)c1 [free-base crystal form A of compound of formula I-1],Solubility,"[1]; FaSSGF, pH 1.6, 37°C, 2 h",380 µg/mL
same,pH of the supernatant,"[1]; FaSSGF, pH 1.6, 37°C, 24 h",1.55
same,Solubility,"[1]; FaSSGF, pH 1.6, 37°C, 24 h",420 µg/mL
same,Residual solid XRPD,"[1]; FaSSGF, pH 1.6, 37°C",Free-base form A
same,Solubility,"[1]; FaSSIF-v1, pH 6.5, 37°C, 2 h",0.4 µg/mL
same,pH of the supernatant,"[1]; FaSSIF-v1, pH 6.5, 37°C, 24 h",6.50
same,Solubility,"[1]; FaSSIF-v1, pH 6.5, 37°C, 24 h",1.1 µg/mL
same,Residual solid XRPD,"[1]; FaSSIF-v1, pH 6.5, 37°C",Free-base form A
same,Solubility,"[1]; FeSSIF-v1, pH 5.0, 37°C, 2 h",4.5 µg/mL
same,pH of the supernatant,"[1]; FeSSIF-v1, pH 5.0, 37°C, 24 h",4.97
same,Solubility,"[1]; FeSSIF-v1, pH 5.0, 37°C, 24 h",6.6 µg/mL
same,Residual solid XRPD,"[1]; FeSSIF-v1, pH 5.0, 37°C",Free-base form A
same,Solubility,"[1]; Water, 37°C, 2 h",1.2 µg/mL
same,pH of the supernatant,"[1]; Water, 37°C, 24 h",7.72
same,Solubility,"[1]; Water, 37°C, 24 h",1.3 µg/mL
same,Residual solid XRPD,"[1]; Water, 37°C",Free-base form A
C=C(C)C(=O)Nc1ccc(-c2c(-c3ccc(N=S4(=O)CCCC4)cc3)c3c(N)ncnc3n2C)c(F)c1 [hydrochloride crystal form I of the compound of Formula I-1],pH of the supernatant,"[1]; FaSSGF, pH 1.6, 37°C, 24 h",1.56
same,pH of the supernatant,"[1]; FaSSIF-v1, pH 6.5, 37°C, 24 h",6.18
same,Residual solid XRPD,"[1]; FaSSIF-v1, pH 6.5, 37°C",Free-base form A
same,pH of the supernatant,"[1]; FeSSIF-v1, pH 5.0, 37°C, 24 h",4.90
same,Residual solid XRPD,"[1]; FeSSIF-v1, pH 5.0, 37°C",Free-base form A
same,pH of the supernatant,"[1]; Water, 37°C, 24 h",2.55
same,Residual solid XRPD,"[1]; Water, 37°C",Free-base form A
same,physical stability (change in total impurities or crystal form),"[2]; 25 °C/60% RH open container, one week, 60 °C sealed container",no change in total impurities or crystal form
same,Solid (XRPD),"[2]; 25°C/60% RH, open container",Hydrochloride crystal form I (no change)
same,"Purity, Solid (HPLC)","[2]; 25°C/60% RH, open container",99.5%
same,Color,"[2]; 25°C/60% RH, open container",No color change
same,Solid (XRPD),"[2]; 60°C, sealed container",Hydrochloride crystal form I (no change)
same,"Purity, Solid (HPLC)","[2]; 60°C, sealed container",99.6%
same,Color,"[2]; 60°C, sealed container",No color change
